The values below are quoted from earlier work in patent US20100190706A1, “Stable Non-Aqueous Pharmaceutical Compositions” (NOVO NORDISK A/S, priority 2007, published 2010).

For the data set the following is noted: cited from earlier work.

insulin: the “retained and metabolized in first passage through the liver” value is “roughly 60%”.
